Experimental data published in ChEMBL document CHEMBL4431392, “Treatment of Pain with Spirocylic Cyclohexane Derivatives Having Dual Specificity for ORL-1 and μ-Opioid Receptors” (2016).

By UniProt entry, the sequences of proteins in these tests, tags left out. Where a name states a change or a piece, a line headed by the entry shows the natural chain unless it says otherwise.
UniProt P35372, whole entry, looked up: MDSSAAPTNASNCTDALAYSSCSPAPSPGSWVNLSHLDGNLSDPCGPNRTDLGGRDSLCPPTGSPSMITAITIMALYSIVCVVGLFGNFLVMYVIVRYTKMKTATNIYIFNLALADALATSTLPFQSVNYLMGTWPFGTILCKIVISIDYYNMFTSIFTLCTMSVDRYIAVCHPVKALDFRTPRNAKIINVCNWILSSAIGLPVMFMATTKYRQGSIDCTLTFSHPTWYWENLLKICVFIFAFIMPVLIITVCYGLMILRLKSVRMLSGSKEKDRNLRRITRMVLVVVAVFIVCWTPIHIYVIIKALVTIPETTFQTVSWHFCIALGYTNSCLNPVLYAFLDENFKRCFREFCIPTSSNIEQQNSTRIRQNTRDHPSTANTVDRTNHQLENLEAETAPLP
UniProt P41146: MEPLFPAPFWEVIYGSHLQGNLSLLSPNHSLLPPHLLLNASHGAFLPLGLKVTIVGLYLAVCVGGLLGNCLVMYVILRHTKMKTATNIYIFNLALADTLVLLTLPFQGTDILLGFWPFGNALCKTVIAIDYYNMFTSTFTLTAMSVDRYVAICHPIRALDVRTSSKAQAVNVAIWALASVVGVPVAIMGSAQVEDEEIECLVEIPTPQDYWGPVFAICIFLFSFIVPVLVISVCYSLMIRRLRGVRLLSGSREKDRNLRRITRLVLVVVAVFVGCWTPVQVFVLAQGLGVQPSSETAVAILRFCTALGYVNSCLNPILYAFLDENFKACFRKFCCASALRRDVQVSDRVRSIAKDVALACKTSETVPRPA

Experiments:
Mu-type opioid receptor = Mu-type opioid receptor (Homo sapiens, UniProt P35372); experiment: Displacement of [3H]-naloxone human mu-opioid receptor expressed in CHO-K1 cell membranes measured after 90 mins by beta-counter method
Nociceptin receptor = Nociceptin receptor (Homo sapiens, UniProt P41146); experiment: Displacement of [3H]-nociceptin/orphanin FQ from recombinant ORL1 receptor (unknown origin) expressed in CHO cell membranes measured after 1 hr by scintillation counter method
Rattus norvegicus = experiment: Analgesic activity in iv dosed Sprague-Dawley rat assessed as increase in pain latency measured up to 60 mins by tail-flick assay

Row | Structure (SMILES) | Ki (Mu-type opioid receptor) | Ki (Nociceptin receptor) | ED50 (Rattus norvegicus)
1 | CN(C)C1(c2ccccc2)CCC2(CCN(C(=O)CC3(C#N)CCC3)C2)CC1 (stereo not given) | 1 nM | 0.7 nM | 0.0152 mg/kg
2 | CCCC(=O)N1CCC2(CCC(c3ccccc3)(N(C)C)CC2)C1 (stereo not given) |  |  | 0.157 mg/kg
3 | CCCCN1CCC2(CCC(c3cccs3)(N(C)C)CC2)C1 (stereo not given) |  |  | 0.414 mg/kg
4 | CN(C)C1(C2CCCC2)CCC2(CCN(C(=O)CC3CC3)C2)CC1 (stereo not given) | 4 nM |  | 0.00543 mg/kg
5 | CN(C)C1(c2ccccc2)CCC2(CC1)CC(=O)N(CCC1(C#N)CCC1)C2 (stereo not given) | 1.2 nM | 1.6 nM | 
6 | Cc1ccsc1C1(N(C)C)CCC2(CCN(C(=O)CC(C)C)C2)CC1 (stereo not given) | 4.8 nM | 27 nM | 
7 | CCCC(=O)N1CCC2(CCC(c3sccc3C)(N(C)C)CC2)C1 (stereo not given) | 7.6 nM | 15.5 nM | 0.00654 mg/kg
8 | CN(C)C1(c2ccccc2)CCC2(CCN(CCC3(C#N)CCC3)C2)CC1 (stereo not given) | 3.5 nM |  | 
